Assay results taken from publication PMC8720280 (Cell reports, 2021).

Biological target: T1, surface DR5 on human tumor cells (Homo sapiens, UniProt O14763)
T1 construct: Death receptor-5 (DR5), endogenous on tumor cells; also called native DR5; cell surface DR5; source: endogenous, on cultured human tumor cells (MDA-MB-436, MDA-MB-231, OVCAR-3)
Test: co-IP; native immunoprecipitation: cells treated with IgG1 DR5 agonist antibody (10, 50 or 500nM), lysed, anti-human IgG1-Fc beads 2 hr at 4°C, DR5 immunoblot
Details: one partner purified

binding result: binds
B1: AMG655 (antibody, V domains shown)
VH: QVQLQESGPGLVKPSQTLSLTCTVSGGSISSGDYFWSWIRQLPGKGLEWIGHIHNSGTTYYNPSLKSRVTISVDTSKKQFSLRLSSVTAADTAVYYCARDRGGDYYYGMDVWGQGTTVTVSS
VL: EIVLTQSPGTLSLSPGERATLSCRASQGISRSYLAWYQQKPGQAPSLLIYGASSRATGIPDRFSGSGSGTDFTLTISRLEPEDFAVYYCQQFGSSPWTFGQGTKVEIK
notes: IgG1; also called conatumumab; source: FreeStyle CHO-S, transfected, purified (protein A)
